A selection: hits, their analogues and other compounds. The true share with any hit is near 1.3%.
LGR2 inh – Drosophila LGR2 receptor signaling inhibition; HEK293 LGR2, CRE-luciferase, bursicon-stimulated, 4 h; 380,000 tested, 0.35% active; inhibition, % at 9.99 µM; AID 720647;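 active means drop in luminescence signal, shown as inhibition above about 50% in the replicate tests, limit read from the data, passing the limit was not always enough; inconclusive means probably only some replicates passing the limit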;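 further: agonist challenge used bursicon conditioned medium at about half maximal strength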
miR122 inh – blocks miR-122 activity in Huh7 sensor cells; Huh7 miR-122 Renilla luciferase sensor, 48 h; neutral wells = 0, positive control = 100; activation (reporter increase), % at 12.5 µM; 340,000 tested, 0.3% active; AID 602342;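 active means mean replicate activation score at least 90 and every replicate individually at or above 90; inconclusive means only one of the two criteria met; inactive means neither criterion met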;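 further: higher luciferase means less miR-122 activity so hits act as miR-122 inhibitors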
Yeast UUG start – modulators of yeast start codon fidelity, primary screen, whole organism, S. cerevisiae, single point, plate reader | AID 602363, 2012 | S. cerevisiae UUG-firefly luciferase reporter, luminescence/redox ratio | activity score, % at 18.7 µM | hit rate 0.13% among 350,000;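 active = replicate mean at a twofold rise or more, about +100% in these data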;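 also: firefly luciferase made from a UUG start codon reports start codon fidelity; reporter light over untreated wells divided by growth signal over untreated wells; some hits fall short of that in this replicate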
EWS-Fli block – EWS/Fli transcriptional activity inhibition | A673 NR0B1-luciferase reporter, viability-normalised | inhibition, % at 12.6 µM | 350,000 tested, 0.67% active | AID 651661;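 active means mean inhibition of at least 50% after viability correction, with every replicate also passing that limit; inconclusive means mean reaches 50% but only one of two replicates passes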;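 further: firefly luciferase signal divided by Alamar Blue viability fluorescence both relative to DMSO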
CFTR F508del cor – correctors of CFTR F508del function in bronchial epithelial cells; CFBE cells, YFP halide quenching; stimulated with forskolin plus potentiator P3; % fluorescence drop versus neutral controls; activity (quench increase), % at 7.58 µM; 350,000 tested, 0.36% active; AID 720511;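 active means mean added fluorescence quench of at least 8% versus neutral control, with both replicates also reaching 8%; inconclusive means only one of the mean or replicate conditions met; inactive means mean below 8% and not both replicates reaching 8%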;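 further: cells transiently co-express mutant CFTR-F508del with the halide-sensitive YFP; corrector assay measuring rescue of mutant channel to the surface after 24 h compound exposure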
PglD DTNB – inhibitors of Campylobacter jejuni PglD acetyltransferase. purified PglD enzyme, DTNB colorimetric CoA detection. inhibition, % at 12.5 µM. 360,000 tested, 0.098% active. AID 602405; in the data active means inhibition above about 16%, passing the limit was not always enough; inconclusive means no clear call, values can overlap the other calls
Numbers stand for hits; 0 = inactive; ? = inconclusive; - = not tested or not shown; [ ] = dose if it differs, or a comment.

SMILES	LGR2 inh	miR122 inh	Yeast UUG start	EWS-Fli block	CFTR F508del cor	PglD DTNB
CCOc1ccc(OCC(=O)Nc2nccs2)cc1	-	0	-	-	-	-
O=C(COc1ccc2c(c1)OCO2)Nc1nccs1	61	0	0	0	0	0
COCc1nnc(NC(=O)COc2ccc3c(c2)OCO3)s1	0	0	0	0	0	0
O=C(CN(Cc1ccccc1Cl)C(=O)CNS(=O)(=O)c1ccccc1)NCC1CCCO1 (configuration not stated)	0	0	0	0	0	0
CCC(=O)N1[C@H](CN(CC)C(=O)c2cccc(F)c2)[C@H](c2ccccc2)[C@@H]1CO	0	125[16.7 µM]	0	0	0	0
CCN(C[C@H]1[C@H](c2ccccc2)[C@@H](CO)N1C(C)=O)C(=O)c1cccc(F)c1	0	0	0	0	0	0
CCC(=O)N1[C@H](CO)[C@H](c2ccccc2)[C@@H]1CN(CC)C(=O)c1cccc(F)c1	0	250[16.7 µM]	0	0	0	0
O=C(CSc1ncnc2c1nnn2Cc1ccc(F)cc1)NCC1CCCO1 (configuration not stated)	0	-	0	0	0	-
O=[N+]([O-])c1cc(-c2cnc3ccccc3n2)ccc1Oc1ccc(Br)cc1	-	0	0	-	-	0
COC(=O)c1ccc(NCc2c(O)ccc(O)c2Br)cc1Cl	0	0	-	72	0	-
COC(=O)c1ccc(NCc2cc(O)ccc2O)cc1O	0	0	-	57	0	-
O=c1c(Cl)c(Cl)cnn1-c1ccccc1	104	-	-	70	0	-
O=C(Nc1ccc(F)cc1)c1ccc(-n2cncn2)c([N+](=O)[O-])c1	0	-	-	0	0	-
CCCCNc1c(-c2ccc(OC)c(SC3CCCCC3)c2)nc2cc(C)ccn12	0	0	0	0	0	0
CCCCNc1c(-c2cccc(-c3cc(C(C)=O)cs3)c2)nc2ccc(C)cn12	?	0	0	0	0	0
CCCCNc1c(-c2cccc(-c3ccc(OC)cc3)c2)nc2ccc(C)cn12	68	-	0	0	0	0
CCCCNc1c(-c2cccc(-c3ccc(OC)cc3)c2)nc2cc(C)ccn12	92	0	0	0	0	0
COc1ccccc1-c1ccc2c(c1)O[C@@H](CN(C)C)[C@H](C)CN([C@@H](C)CO)S2(=O)=O	0	0	0	0	0	0
N=C(N)SCc1cn(-c2ccccc2)nc1-c1ccc(Br)cc1	100	-	-	0	0	-
COc1ccc(OC)c(C(Nc2ccccc2)P(=O)(OC(C)C)OC(C)C)c1 (configuration not stated)	0	0	0	0	0	0
O=C(COc1ccc(S(=O)(=O)Nc2ccc(Cl)cc2)cc1)N1CCOCC1	0	0	0	-	0	0
CN1CCN(c2ccc(-c3ccc4ccccc4n3)cc2)CC1	102	-	-	93	0	-
Cn1c(C(=O)NCCN2CCOCC2)cc2sccc21	-	0	0	-	-	0
Cc1sc2ncn(CC(=O)N(CC(=O)NC3CCCC3)Cc3cccs3)c(=O)c2c1C	0	123	0	0	0	0
CC(c1nnc(SCC(=O)Nc2cccnc2Cl)n1-c1ccccc1)N(C)C (configuration not stated)	0	-	-	0	-	-
SMILES	LGR2 inh	miR122 inh	Yeast UUG start	EWS-Fli block	CFTR F508del cor	PglD DTNB
COc1ccc(S(=O)(=O)Nc2ccc(S(=O)(=O)N3CCCCC3)cc2)cc1C	0	251	0	-	-	0
COc1ccc(NC(C)=O)cc1S(=O)(=O)Nc1ccc(S(=O)(=O)N2CCCCC2)cc1	0	126	0	0	0	0
COc1ccccc1N1CC(C(=O)Nc2ccc(S(=O)(=O)N3CCCC3)cc2)CC1=O (configuration not stated)	0	0	0	0	9.6	0
COc1ccc(N2CC(C(=O)Nc3ccc(S(=O)(=O)N4CCCC4)cc3)CC2=O)cc1 (configuration not stated)	0	0	0	0	0	0
COCCCN=C1NN=C(c2cc(C)n(-c3ccccc3)c2C)CS1	-	0	0	0	0	0
COCCN=C1NN=C(c2cc(C)n(CC3CCCO3)c2C)CS1 (configuration not stated)	0	-	-	0	0	-
COCCCN=C1NN=C(c2cc(C)n(Cc3ccccc3Cl)c2C)CS1	0	-	-	0	9.1	-
COCCCN=C1NN=C(c2cc(C)n(-c3ccccc3F)c2C)CS1	0	-	-	58	0	-
CCN(CC)c1ccc(N=Cc2ccc(N(CC)CC)cc2O)cc1	-	0	-	-	-	-
CCN(CC)c1ccc(/C=N/N=C(N)N)c(O)c1	0	-	-	54	0	-
